We go through 39 compounds from paper PMC12207590, “Substrate Specificity of the Organic Cation Transporters MATE1 and MATE2K and Functional Overlap with OCT1 and OCT2” (Journal of Medicinal Chemistry, 2025).

The target in one data set is T1, MATE2K (Homo sapiens, UniProt Q86VL8).
T1 sequence (Q86VL8 1-566 isoform Q86VL8-3): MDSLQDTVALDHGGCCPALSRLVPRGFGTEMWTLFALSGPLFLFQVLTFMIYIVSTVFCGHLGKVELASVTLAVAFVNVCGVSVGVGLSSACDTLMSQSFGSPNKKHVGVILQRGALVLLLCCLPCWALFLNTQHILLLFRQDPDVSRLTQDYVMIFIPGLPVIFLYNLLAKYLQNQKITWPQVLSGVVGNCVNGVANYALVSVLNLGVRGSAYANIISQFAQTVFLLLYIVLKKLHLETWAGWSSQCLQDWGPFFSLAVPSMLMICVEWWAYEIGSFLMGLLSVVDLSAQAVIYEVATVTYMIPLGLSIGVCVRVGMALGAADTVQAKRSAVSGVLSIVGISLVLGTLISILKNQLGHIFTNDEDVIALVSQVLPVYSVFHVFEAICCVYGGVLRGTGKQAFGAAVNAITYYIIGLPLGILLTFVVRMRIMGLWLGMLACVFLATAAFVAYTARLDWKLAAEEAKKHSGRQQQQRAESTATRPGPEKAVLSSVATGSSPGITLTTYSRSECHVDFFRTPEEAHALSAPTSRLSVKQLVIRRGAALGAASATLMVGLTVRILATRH
Put plainly: Uptake ratio in MATE2K-overexpressing HEK293 cells vs empty vector ([…], 1 min, HPLC-MS/MS).

A further data set addresses T2, MATE1 (Homo sapiens, UniProt Q96FL8).
T2 sequence (Q96FL8 1-570): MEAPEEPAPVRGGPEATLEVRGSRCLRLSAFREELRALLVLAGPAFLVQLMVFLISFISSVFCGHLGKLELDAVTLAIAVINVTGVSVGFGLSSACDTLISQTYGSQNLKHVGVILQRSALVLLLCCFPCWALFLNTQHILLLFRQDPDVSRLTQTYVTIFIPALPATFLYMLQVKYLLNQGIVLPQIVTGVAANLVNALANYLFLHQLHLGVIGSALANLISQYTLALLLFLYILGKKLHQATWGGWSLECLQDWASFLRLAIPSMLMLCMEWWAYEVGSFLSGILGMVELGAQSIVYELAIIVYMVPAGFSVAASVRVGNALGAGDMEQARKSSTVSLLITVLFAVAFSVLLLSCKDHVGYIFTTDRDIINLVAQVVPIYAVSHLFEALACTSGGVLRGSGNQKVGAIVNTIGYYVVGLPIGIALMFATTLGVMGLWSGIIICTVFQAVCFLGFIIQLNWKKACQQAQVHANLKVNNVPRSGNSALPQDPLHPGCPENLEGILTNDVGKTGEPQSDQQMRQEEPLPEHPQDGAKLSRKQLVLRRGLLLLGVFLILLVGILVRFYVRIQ
Put plainly: Uptake ratio in MATE1-overexpressing HEK293 cells vs empty vector ([…], 1 min, HPLC-MS/MS).

For data set [1] the following is noted: in vivo; cited from earlier work.
Data set [2] deals with MATE1, MATE2K, OCT1, OCT2. As to the kind of experiment: Substrate specificity and overlap among the four transporters (ratio cutoff 2). The data set is classed as cell-based, human. As to conditions: transport ratio cutoff of 2.

As for `C[C@H](N)C(=O)c1ccccc1` [Cathinone], at MATE2K, the “MATE2 (uptake ratio)” value was 1.31 and the MATE2K ratio is 1.31. Besides, at MATE1, the “MATE1 (uptake ratio)” value is on record as 1.14 and the MATE1 ratio was 1.14.
For `NS(=O)(=O)c1cc2c(cc1Cl)NCNS2(=O)=O` [Hydrochlorothiazide], on MATE2K, the MATE2K ratio stood at 2.50. Also, the MATE1 ratio at MATE1 is reported as 2.15.
As for `CC(C)C[C@H]1C(=O)N2CCC[C@H]2[C@]2(O)O[C@](NC(=O)[C@@H]3C=C4c5cccc6[nH]c(Br)c(c56)C[C@H]4N(C)C3)(C(C)C)C(=O)N12` [Bromocriptine], at MATE2K, the “MATE2 (uptake ratio)” value came out at 1.48 and the MATE2K ratio is recorded as 1.48. Also, on MATE1, the “MATE1 (uptake ratio)” value is reported as 1.58 and the MATE1 ratio was 1.58.
For `COCCCN1CCC(NC(=O)c2cc(Cl)c(N)c3c2OCC3)CC1` [Prucalopride], the MATE2 on MATE2K stood at 1.07.
As to `Nc1ccncc1` [Fampridine (4-aminopyridine), 4-aminopyridine], the MATE2K ratio at MATE2K is reported as 1.23. Further, at MATE1, the MATE1 ratio is recorded as 1.94.
Consider `C[N+]1(C)CCC(OC(=O)C(O)(c2ccccc2)C2CCCC2)C1.[Br-]` (centres unmarked) [Glycopyrrolate], for which the “eliminated unchanged via the kidneys” value in data set [1] was “more than 70%”.
`CCN1CCC[C@H]1CNC(=O)c1cc(S(N)(=O)=O)ccc1OC` [Sulpiride (S)]: the MATE1 on MATE1 is on record as 22.45.
For the compound `CC[C@@H](c1cccc(O)c1)[C@@H](C)CN(C)C` [Tapentadol], the MATE2 on MATE2K worked out at 1.1. Further, the MATE1 on MATE1 is reported as 1.18.
For the compound `COC(=O)C(c1ccccc1)C1CCCCN1` (centres unmarked) [Methylphenidate], the MATE2K ratio on MATE2K came to 1.40. On MATE1, the MATE1 ratio turned out to be 1.16.
On the same counts, the results for `CCN(CC)CCNC(=O)c1cc(Cl)c(N)cc1OC` [Metoclopramide] are 1.26 and 1.08.
On to `CCN(C)C(=O)Oc1cccc([C@H](C)N(C)C)c1` [Rivastigmine], for which, at MATE1, the MATE1 is on record as 0.98.
On to `CN(C)CCC=C1c2ccccc2CCc2ccccc21` [Amitriptyline], for which, at MATE2K, the “MATE2 (uptake ratio)” value came out at 1.03 and the MATE2K ratio is listed as 1.03. On MATE1, the “MATE1 (uptake ratio)” value amounted to 1.13 and the MATE1 ratio is reported as 1.13.
As for `COC(=O)[C@H]1[C@@H](OC(=O)c2ccccc2)C[C@@H]2CC[C@H]1N2C` [Cocaine], on MATE2K, the “MATE2 (uptake ratio)” value worked out at 1.6 and the MATE2K ratio is recorded as 1.60. In addition, at MATE1, the “MATE1 (uptake ratio)” value stood at 1.34 and the MATE1 ratio worked out at 1.34.
Take `COc1ccc2c(c1)[C@@]13CCCC[C@H]1[C@@H](C2)NCC3` [3-Methoxymorphinan]: at MATE2K, the “MATE2 (uptake ratio)” value is 1.19 and the MATE2K ratio is recorded as 1.19. Further, on MATE1, the “MATE1 (uptake ratio)” value stood at 1.14 and the MATE1 ratio is reported as 1.14.
Turning to `CCN1CCCC1CNC(=O)c1cc(S(N)(=O)=O)ccc1OC` (centres unmarked) [Sulpiride], at MATE2K, the MATE2 was determined as 21.71 and the “MATE2K ratio in this study” value was 21.71. Moreover, at MATE1, the MATE1 stood at 23.85, the MATE1 ratio entry is given as “above 2” and the “MATE1 ratio in this study” value turned out to be 23.85.
Consider `COc1ccc2c(c1)[C@]13CCCC[C@@H]1[C@H](C2)N(C)CC3` [Dextromethorphan], for which the MATE2K ratio at MATE2K turned out to be 1.14. For the same compound, on MATE1, the MATE1 ratio stood at 1.04.
The like results for `O=P1(N(CCCl)CCCl)NCCCO1` (centres unmarked) [Cyclophosphamide] were, in that order, 1.15 and 1.07.
Take `COc1ccc2c3c1O[C@H]1C(=O)CC[C@@]4(O)[C@@H](C2)N(C)CC[C@]314` [Oxycodone]: the MATE2K ratio at MATE2K was found to be 1.21. Further, at MATE1, the MATE1 ratio is on record as 1.09.
On to `CCOc1ccccc1OC(c1ccccc1)C1CNCCO1` (centres unmarked) [Reboxetine], for which, on MATE2K, the MATE2 came to 0.94 and the MATE2K ratio is 0.94. Also, on MATE1, the MATE1 stood at 0.95 and the MATE1 ratio worked out at 0.95.
With Maraviroc, at MATE1, the MATE1 ratio is reported as 1.58.
As for `CCCC(C)C1(CC)C(=O)NC(=O)NC1=O` (centres unmarked) [Pentobarbital], the MATE2K ratio on MATE2K is 1.17. Moreover, the MATE1 ratio at MATE1 stood at 1.14.
On to `COc1cc2nc(N3CCN(C(=O)C4CCCO4)CC3)nc(N)c2cc1OC` (centres unmarked) [Terazosin], for which the MATE2 on MATE2K was found to be 1.28. The MATE1 at MATE1 is 1.17.
For `N#C[C@@H]1CCCN1C(=O)CNC12CC3CC(CC(O)(C3)C1)C2` [Vildagliptin], the MATE2 at MATE2K turned out to be 1.06.
As to `CCCN(CCC)CCc1cccc2c1CC(=O)N2` [Ropinirole], the MATE2K ratio on MATE2K is 1.49. The MATE1 ratio on MATE1 was 1.43.
In the case of `Clc1cccc(N2CCNCC2)c1` [1-(3-Chlorophenyl)piperazine], at MATE2K, the “MATE2 (uptake ratio)” value amounted to 0.89 and the MATE2K ratio worked out at 0.89. At MATE1, the “MATE1 (uptake ratio)” value worked out at 1.27 and the MATE1 ratio was 1.27.
For the compound `CNC1(c2ccccc2Cl)CCCCC1=O` (centres unmarked) [Ketamine], at MATE2K, the MATE2K ratio turned out to be 1.12. For the same compound, at MATE1, the MATE1 ratio turned out to be 1.27.
The like results for `CNCC(O)c1ccc(O)c(OC)c1` (centres unmarked) [Metanephrine] were, in that order, 1.71 and 4.97.
On the same counts, the results for `N#CC(CCN1CCC(C(N)=O)(N2CCCCC2)CC1)(c1ccccc1)c1ccccc1` [Piritramide] are 1.17 and 1.25.
In the case of `CN[C@@H](C)Cc1ccccc1` [Metamfetamine], on MATE2K, the MATE2K ratio was 1.97 and the “MATE2K ratio in this study” value was 1.97. Moreover, at MATE1, the MATE1 ratio was determined as 1.53 and the “MATE1 ratio in this study” value amounted to 1.53.
Consider `CCOC(=O)C1(c2ccccc2)CCN(C)CC1` [Pethidine], for which the MATE2K ratio at MATE2K is listed as 2.82. In addition, the MATE1 ratio on MATE1 is listed as 1.80.
On the same counts, the results for `NCC1(CC(=O)O)CCCCC1` [Gabapentin] are 1.04 and 0.75.
`CC(C)(N)Cc1ccccc1` [Phentermine]: on MATE2K, the MATE2K ratio is 1.76. Further, at MATE1, the MATE1 ratio turned out to be 1.20.
On to `COc1ccc2[nH]cc(CCN)c2c1` [5-Methoxytryptamine], for which, at MATE2K, the “MATE2 (uptake ratio)” value was 1.66 and the MATE2K ratio is reported as 1.66. At MATE1, the “MATE1 (uptake ratio)” value was determined as 3.49 and the MATE1 ratio came to 3.49.
`O=C(O)Cc1ccccc1Nc1c(Cl)cccc1Cl` [Diclofenac]: on MATE2K, the MATE2K ratio came out at 0.73. Further, the MATE1 ratio on MATE1 was determined as 1.00.
With `N=C(N)NC(=O)c1nc(Cl)c(N)nc1N` [Amiloride], at MATE2K, the “MATE2 (uptake ratio)” value was 6.8, the MATE2K ratio was found to be 6.80 and the “MATE2K ratio in this study” value was 6.80. Moreover, on MATE1, the “MATE1 (uptake ratio)” value came out at 11.06, the MATE1 ratio is on record as 11.06 and the “MATE1 ratio in this study” value is given as 11.06.
Take `CC[C@@H](CO)NC(=O)[C@@H]1C=C2c3cccc4c3c(cn4C)C[C@H]2N(C)C1` [Methysergide]: on MATE2K, the MATE2K ratio turned out to be 1.20. Moreover, at MATE1, the MATE1 ratio is recorded as 1.06.
Take `COc1cc(CCN)cc(OC)c1OC` [Mescaline]: the MATE2K ratio on MATE2K stood at 1.56. Further, on MATE1, the MATE1 ratio is on record as 4.00.
As for `CN1C[C@H](C(=O)N[C@]2(C)O[C@@]3(O)[C@@H]4CCCN4C(=O)[C@H](Cc4ccccc4)N3C2=O)C[C@@H]2c3cccc4[nH]cc(c34)C[C@H]21` [Dihydroergotamine], the MATE2K ratio on MATE2K turned out to be 1.19. Moreover, on MATE1, the MATE1 ratio is 1.19.
Minoxidil: the “Substrate specificity among MATE1, MATE2K, OCT1, OCT2” value in data set [2] is reported as “OCT2 only”. Also, on MATE2K, the MATE2K ratio stood at 1.54. Moreover, the MATE1 ratio on MATE1 is 1.56.
